Target: T1, A1-adenosine receptor (Rattus norvegicus, UniProt P25099)
T1 construct: Rat cerebral cortical membranes and striatal membranes were prepared; from tissue; host or cells: rat cerebral cortex membranes
Assay: Inhibition of [3H]N6-phenylisopropyladenosine binding to A1 receptors

By UniProt entry, the sequences of proteins in these tests, tags left out.
UniProt P25099, whole entry: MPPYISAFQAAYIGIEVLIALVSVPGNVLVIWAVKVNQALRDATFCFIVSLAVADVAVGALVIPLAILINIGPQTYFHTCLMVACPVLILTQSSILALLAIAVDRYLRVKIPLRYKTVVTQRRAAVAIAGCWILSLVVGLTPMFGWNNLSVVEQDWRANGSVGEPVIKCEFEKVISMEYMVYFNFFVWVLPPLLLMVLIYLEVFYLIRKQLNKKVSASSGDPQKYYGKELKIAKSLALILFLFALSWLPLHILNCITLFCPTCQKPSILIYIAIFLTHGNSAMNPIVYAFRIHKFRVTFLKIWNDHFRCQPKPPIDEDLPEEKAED

Cn1c(=O)c2[nH]cnc2n(C)c1=O [Compound 1, theophylline, reference compound]
Affinity for A1 receptor: little affinity
